Measured values taken from article PMC12648092 (Acta Pharmaceutica Sinica. B, 2025).

Sequences of proteins named here, by UniProt entry; tags and fusion partners are left off. Residues count along the entry.
UniProt P22303, 32-617 isoform P22303-2 limits assumed: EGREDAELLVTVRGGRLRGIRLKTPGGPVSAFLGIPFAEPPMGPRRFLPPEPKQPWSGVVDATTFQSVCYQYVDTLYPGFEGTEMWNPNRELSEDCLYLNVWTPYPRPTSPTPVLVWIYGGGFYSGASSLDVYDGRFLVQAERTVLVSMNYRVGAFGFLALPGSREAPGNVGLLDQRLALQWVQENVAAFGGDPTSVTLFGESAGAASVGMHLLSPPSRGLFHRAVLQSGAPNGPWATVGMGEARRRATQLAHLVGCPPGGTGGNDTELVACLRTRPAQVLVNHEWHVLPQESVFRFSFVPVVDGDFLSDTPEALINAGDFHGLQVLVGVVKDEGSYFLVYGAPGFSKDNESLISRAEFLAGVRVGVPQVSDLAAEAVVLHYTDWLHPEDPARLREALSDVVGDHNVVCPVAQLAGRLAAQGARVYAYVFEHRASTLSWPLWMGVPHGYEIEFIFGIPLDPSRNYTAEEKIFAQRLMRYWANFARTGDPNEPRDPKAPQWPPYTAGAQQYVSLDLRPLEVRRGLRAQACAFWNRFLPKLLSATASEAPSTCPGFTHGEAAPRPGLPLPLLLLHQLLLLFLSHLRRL

Target: AChE (Homo sapiens, UniProt P22303)
Assay: ROCMCBs

COc1ccc2cc3[n+](cc2c1OC)CCc1cc2c(cc1-3)OCO2 [berberine]
IC50: 4.7 µM
